Experiments:
[1] = target: Opioid receptors; mu/kappa/delta (Homo sapiens) (UniProt P41145+P41143+P35372); experiment: Percent inhibition against Opioid receptors using [3H]etorphine at 1 uM
[2] = target: 5-hydroxytryptamine receptor 2A (Homo sapiens) (UniProt P28223); experiment: Percent inhibition against 5-hydroxytryptamine 2A receptor using [3H]ketanserin at 1 uM
[3] = target: Adrenergic receptor alpha-1 (Homo sapiens) (UniProt P35348+P25100+P35368); experiment: Percent inhibition against alpha-1 adrenergic receptor using [3H]prazosin at 1 uM
[4] = target: Muscarinic acetylcholine receptor (Homo sapiens) (UniProt P20309+P08173+P11229+P08172+P08912); experiment: Percent inhibition against Muscarinic acetylcholine receptor using [3H]oxotremorine-M at 1 uM
[5] = target: Adrenergic receptor alpha-2 (Homo sapiens) (UniProt P08913+P18825+P18089); experiment: Percent inhibition against alpha-2 adrenergic receptor using [3H]clonidine at 1 uM
[6] = target: Adrenergic receptor beta (Homo sapiens) (UniProt P08588+P07550+P13945); experiment: Inhibition of [3H]dihydroalprenolol binding to beta adrenergic receptor at 1 uM
[7] = target: GABA-A receptor; anion channel (Homo sapiens) (UniProt P14867+P47870+P18507+P28472+P48169+Q99928+Q9UN88+P34903+O00591+O14764+Q8N1C3+P18505+P78334+P47869+P31644+Q16445); experiment: Percent inhibition of [3H]flunitrazepam binding to GABA-A benzodiazepine receptor at 1 uM
[8] = target: D(4) dopamine receptor (Homo sapiens) (UniProt P21917); experiment: Percent inhibition against Dopamine receptor D4 using [3H]spiperone at 1 uM
[9] = target: D(1A) dopamine receptor (Homo sapiens) (UniProt P21728); experiment: Percent inhibition against Dopamine receptor D1 using [3H]-SCH- 23990 at 1 uM

Amino acid sequences for entries named in this document (tags omitted). A change or cut given only in a name is not applied to a line headed by its entry.
UniProt P41143, whole entry, looked up: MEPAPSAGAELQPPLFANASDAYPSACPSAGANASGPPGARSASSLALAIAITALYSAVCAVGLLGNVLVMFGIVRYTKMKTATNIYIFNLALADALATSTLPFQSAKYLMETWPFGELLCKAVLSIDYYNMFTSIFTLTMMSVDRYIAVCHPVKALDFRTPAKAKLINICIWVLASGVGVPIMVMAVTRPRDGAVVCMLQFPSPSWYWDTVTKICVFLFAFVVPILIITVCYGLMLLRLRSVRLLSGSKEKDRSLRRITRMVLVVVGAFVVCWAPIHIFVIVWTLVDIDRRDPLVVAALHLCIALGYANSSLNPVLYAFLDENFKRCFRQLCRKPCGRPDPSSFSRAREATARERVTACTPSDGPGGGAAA
UniProt P35372, whole entry, looked up: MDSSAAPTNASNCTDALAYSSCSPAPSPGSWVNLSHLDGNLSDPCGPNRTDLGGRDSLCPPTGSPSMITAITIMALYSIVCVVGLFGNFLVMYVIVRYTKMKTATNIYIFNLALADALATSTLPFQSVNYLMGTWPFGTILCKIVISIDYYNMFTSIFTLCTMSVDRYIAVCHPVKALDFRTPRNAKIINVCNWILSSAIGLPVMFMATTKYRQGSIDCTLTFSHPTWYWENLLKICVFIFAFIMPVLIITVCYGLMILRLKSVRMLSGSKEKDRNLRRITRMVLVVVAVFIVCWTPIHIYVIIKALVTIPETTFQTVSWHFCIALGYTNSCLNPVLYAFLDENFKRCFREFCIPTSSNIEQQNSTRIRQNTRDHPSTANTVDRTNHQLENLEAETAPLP
UniProt P28223, whole entry, looked up: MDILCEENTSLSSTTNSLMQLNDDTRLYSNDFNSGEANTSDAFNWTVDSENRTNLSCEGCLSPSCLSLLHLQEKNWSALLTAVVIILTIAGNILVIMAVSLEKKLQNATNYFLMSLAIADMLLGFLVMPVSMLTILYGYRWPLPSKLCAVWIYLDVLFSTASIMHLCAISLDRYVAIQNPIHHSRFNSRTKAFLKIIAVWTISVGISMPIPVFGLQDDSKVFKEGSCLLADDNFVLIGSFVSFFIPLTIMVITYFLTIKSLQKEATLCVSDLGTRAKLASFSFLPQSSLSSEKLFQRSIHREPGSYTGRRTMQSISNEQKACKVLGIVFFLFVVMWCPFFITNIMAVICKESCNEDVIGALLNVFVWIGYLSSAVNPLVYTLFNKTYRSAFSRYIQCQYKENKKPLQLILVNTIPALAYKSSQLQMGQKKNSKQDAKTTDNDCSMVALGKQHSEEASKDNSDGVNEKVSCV
UniProt P35368, whole entry, looked up: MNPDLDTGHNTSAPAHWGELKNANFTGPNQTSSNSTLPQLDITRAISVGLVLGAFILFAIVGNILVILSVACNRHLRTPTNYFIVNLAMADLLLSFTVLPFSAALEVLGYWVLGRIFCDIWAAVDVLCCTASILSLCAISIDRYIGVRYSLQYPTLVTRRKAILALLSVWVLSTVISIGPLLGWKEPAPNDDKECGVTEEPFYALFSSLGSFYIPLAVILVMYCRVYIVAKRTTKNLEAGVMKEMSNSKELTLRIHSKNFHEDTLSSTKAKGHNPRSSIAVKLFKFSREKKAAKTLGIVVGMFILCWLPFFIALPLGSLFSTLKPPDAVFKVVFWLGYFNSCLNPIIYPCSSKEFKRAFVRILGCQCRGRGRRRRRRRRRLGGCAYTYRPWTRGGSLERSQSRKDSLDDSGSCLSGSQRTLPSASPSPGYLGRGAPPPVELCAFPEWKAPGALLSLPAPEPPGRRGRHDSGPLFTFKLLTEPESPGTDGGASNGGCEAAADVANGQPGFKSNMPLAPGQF
UniProt P20309: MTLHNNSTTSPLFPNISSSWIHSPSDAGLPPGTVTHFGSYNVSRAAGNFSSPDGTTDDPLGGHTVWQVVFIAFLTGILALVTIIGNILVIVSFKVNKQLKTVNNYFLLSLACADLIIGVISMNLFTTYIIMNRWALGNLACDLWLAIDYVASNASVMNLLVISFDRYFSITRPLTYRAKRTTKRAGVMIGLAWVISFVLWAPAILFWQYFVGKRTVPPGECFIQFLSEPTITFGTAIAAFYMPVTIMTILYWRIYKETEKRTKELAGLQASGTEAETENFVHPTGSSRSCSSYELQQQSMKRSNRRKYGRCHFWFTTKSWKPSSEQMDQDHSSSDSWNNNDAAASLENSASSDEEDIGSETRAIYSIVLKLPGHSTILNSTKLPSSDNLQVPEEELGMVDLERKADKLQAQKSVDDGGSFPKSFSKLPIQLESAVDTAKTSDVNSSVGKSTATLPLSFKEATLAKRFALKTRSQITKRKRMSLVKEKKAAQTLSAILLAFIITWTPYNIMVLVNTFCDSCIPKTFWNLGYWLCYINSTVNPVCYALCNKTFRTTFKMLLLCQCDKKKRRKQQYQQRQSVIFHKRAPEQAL
UniProt P18089, whole entry, looked up: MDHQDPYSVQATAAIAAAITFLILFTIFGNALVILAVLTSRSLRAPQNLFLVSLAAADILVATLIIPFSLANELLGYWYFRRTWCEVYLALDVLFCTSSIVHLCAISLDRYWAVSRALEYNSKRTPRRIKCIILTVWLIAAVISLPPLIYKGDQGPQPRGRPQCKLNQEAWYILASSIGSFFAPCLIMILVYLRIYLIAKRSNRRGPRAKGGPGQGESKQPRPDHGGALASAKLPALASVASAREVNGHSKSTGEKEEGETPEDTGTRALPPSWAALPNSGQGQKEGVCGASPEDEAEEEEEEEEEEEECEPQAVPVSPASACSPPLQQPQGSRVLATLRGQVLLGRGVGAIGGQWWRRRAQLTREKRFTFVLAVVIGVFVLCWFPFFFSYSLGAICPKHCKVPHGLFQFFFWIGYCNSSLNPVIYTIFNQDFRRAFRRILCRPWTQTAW
UniProt P47870: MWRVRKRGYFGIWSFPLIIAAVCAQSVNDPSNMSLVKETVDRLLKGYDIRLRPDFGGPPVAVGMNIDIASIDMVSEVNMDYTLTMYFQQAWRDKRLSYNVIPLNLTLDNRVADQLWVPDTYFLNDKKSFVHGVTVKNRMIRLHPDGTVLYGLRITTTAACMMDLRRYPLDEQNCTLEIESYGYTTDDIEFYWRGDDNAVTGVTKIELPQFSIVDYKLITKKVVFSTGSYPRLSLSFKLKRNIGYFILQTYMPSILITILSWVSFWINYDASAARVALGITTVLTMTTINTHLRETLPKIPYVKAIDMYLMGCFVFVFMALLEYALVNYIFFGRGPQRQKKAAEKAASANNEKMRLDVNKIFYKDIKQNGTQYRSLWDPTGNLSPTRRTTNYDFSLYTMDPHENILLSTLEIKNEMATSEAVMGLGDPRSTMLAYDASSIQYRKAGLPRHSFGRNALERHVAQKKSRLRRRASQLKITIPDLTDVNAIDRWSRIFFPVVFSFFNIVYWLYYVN
UniProt P28472: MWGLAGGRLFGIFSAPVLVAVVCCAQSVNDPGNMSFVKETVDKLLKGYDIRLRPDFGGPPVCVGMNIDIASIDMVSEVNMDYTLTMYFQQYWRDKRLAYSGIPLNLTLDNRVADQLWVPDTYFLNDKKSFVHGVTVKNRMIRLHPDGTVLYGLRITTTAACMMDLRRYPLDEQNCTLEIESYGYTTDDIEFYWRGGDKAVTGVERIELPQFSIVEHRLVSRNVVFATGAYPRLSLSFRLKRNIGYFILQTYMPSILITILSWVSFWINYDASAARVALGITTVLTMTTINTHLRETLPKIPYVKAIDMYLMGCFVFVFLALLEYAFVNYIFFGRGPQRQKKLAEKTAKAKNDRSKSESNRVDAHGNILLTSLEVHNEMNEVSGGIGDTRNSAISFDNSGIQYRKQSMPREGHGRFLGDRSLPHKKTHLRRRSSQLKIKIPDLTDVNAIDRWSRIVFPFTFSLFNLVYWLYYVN
UniProt Q9UN88: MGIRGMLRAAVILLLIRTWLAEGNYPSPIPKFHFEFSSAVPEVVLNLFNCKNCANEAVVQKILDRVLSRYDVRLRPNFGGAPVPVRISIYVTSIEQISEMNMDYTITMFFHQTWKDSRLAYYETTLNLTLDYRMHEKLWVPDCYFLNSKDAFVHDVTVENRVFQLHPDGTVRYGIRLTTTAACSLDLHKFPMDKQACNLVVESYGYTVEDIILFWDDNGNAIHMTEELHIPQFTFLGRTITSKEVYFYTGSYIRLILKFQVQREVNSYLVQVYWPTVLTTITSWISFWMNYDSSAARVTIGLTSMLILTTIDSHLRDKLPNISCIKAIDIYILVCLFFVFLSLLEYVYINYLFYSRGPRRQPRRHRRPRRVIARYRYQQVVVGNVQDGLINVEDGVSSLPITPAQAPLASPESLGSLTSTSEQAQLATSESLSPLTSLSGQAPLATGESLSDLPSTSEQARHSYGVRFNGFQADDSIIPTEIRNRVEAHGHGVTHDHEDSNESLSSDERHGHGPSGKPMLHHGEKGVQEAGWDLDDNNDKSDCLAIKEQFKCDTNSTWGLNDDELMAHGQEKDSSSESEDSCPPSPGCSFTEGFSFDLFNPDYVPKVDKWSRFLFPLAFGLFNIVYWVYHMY
UniProt P34903: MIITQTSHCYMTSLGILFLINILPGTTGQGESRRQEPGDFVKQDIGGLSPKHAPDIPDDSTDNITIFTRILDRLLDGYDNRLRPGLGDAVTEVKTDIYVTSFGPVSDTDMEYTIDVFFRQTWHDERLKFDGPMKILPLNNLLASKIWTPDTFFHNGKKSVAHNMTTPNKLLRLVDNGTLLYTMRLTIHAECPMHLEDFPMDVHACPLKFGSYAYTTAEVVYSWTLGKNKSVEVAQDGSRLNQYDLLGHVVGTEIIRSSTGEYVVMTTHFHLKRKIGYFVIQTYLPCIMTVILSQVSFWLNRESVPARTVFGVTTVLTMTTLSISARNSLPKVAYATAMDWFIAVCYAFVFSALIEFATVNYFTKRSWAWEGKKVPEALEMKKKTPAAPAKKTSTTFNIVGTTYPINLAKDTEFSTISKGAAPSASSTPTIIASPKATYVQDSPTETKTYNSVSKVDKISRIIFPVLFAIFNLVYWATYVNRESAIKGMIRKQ
UniProt O00591: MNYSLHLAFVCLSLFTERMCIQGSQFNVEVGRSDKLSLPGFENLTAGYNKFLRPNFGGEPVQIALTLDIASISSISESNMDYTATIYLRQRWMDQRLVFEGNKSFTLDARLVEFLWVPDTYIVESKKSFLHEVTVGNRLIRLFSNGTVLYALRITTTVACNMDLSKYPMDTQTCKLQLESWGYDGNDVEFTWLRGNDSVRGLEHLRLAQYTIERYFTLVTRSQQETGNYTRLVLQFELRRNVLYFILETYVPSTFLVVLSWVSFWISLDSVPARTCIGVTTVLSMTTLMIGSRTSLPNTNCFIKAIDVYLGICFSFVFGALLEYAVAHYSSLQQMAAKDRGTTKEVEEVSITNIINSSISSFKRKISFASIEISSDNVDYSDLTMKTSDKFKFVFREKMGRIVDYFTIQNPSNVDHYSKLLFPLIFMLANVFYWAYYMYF
UniProt P18505: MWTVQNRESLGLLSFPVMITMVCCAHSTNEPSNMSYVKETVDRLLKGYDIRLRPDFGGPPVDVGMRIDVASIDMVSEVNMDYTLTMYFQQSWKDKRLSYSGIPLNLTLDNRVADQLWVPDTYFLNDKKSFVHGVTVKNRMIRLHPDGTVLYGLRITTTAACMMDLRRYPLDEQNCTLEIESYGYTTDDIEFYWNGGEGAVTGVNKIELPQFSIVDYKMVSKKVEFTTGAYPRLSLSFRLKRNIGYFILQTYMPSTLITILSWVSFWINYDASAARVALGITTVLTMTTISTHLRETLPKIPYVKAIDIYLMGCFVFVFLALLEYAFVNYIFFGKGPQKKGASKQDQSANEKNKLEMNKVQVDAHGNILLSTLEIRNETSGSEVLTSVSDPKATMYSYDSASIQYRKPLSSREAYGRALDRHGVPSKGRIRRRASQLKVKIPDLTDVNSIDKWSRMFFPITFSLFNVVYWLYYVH
UniProt P31644: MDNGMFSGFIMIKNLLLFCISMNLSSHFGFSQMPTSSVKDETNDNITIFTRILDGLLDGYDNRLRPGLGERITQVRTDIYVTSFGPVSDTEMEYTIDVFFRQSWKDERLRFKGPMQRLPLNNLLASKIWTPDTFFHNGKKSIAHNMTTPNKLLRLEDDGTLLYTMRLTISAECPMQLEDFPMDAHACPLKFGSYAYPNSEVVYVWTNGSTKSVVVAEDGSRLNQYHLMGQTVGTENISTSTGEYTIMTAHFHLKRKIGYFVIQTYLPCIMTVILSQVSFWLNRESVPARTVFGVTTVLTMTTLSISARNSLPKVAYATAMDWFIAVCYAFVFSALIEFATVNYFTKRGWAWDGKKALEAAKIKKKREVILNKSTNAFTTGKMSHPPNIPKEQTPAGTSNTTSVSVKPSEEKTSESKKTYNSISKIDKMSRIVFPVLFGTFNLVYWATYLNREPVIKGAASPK

Q: For `CCCN[C@@H]1Cc2cccc3nc(O)n(c23)C1`, which inhibition [1] is on record?
A: The inhibition was less than 30%.

Q: And the inhibition [2]?
A: The inhibition was less than 30%.

Q: And the inhibition [3]?
A: The inhibition was less than 30%.

Q: And the inhibition [4]?
A: The inhibition was less than 30%.

Q: What about the inhibition [5] of the same compound?
A: The inhibition was less than 30%.

Q: And the inhibition [6]?
A: Its inhibition is less than 30%.

Q: And the inhibition [7]?
A: The inhibition was less than 30%.

Q: Which inhibition [1] does the source give for `CN[C@@H]1Cc2cccc3[nH]c(=O)n(c23)C1` [SUMANIROLE] here?
A: Its inhibition is less than 30%.

Q: What about the inhibition [2] of the same compound?
A: Its inhibition is less than 30%.

Q: And the inhibition [3]?
A: Its inhibition is less than 30%.

Q: What about the inhibition [4] of the same compound?
A: Its inhibition is less than 30%.

Q: And the inhibition [5]?
A: Its inhibition is less than 30%.

Q: And the inhibition [6]?
A: Its inhibition is less than 30%.

Q: And the inhibition [7]?
A: Its inhibition is less than 30%.

Q: With `CN[C@H]1Cc2cccc3nc(O)n(c23)C1` as the compound, how does the inhibition [1] read?
A: The inhibition was less than 50%.

Q: What about the inhibition [2] of the same compound?
A: Its inhibition is less than 50%.

Q: And the inhibition [3]?
A: The inhibition was less than 50%.

Q: And the inhibition [4]?
A: The inhibition was less than 50%.

Q: What about the inhibition [5] of the same compound?
A: The inhibition was less than 50%.

Q: What about the inhibition [6] of the same compound?
A: Its inhibition is less than 50%.

Q: What about the inhibition [7] of the same compound?
A: The inhibition was less than 50%.

Q: Which inhibition [1] does the source give for `CN(C)[C@H]1Cc2cccc3ncn(c23)C1` here?
A: Its inhibition is less than 50%.

Q: And the inhibition [2]?
A: The inhibition was less than 50%.

Q: What about the inhibition [3] of the same compound?
A: The inhibition was less than 50%.

Q: And the inhibition [8]?
A: Its inhibition is less than 50%.

Q: And the inhibition [4]?
A: Its inhibition is less than 50%.

Q: And the inhibition [5]?
A: The inhibition was less than 50%.

Q: And the inhibition [9]?
A: Its inhibition is less than 50%.

Q: What about the inhibition [6] of the same compound?
A: Its inhibition is less than 50%.

Q: And the inhibition [7]?
A: The inhibition was less than 50%.

Q: `CN[C@@H]1Cc2cccc3ncn(c23)C1` was tested. Which inhibition [1] did it give?
A: The inhibition was 64%.

Q: And the inhibition [2]?
A: Its inhibition is 64%.

Q: And the inhibition [3]?
A: The inhibition was 64%.

Q: What about the inhibition [8] of the same compound?
A: The inhibition was 64%.

Q: What about the inhibition [4] of the same compound?
A: The inhibition was 64%.

Q: And the inhibition [5]?
A: The inhibition was 64%.

Q: What about the inhibition [9] of the same compound?
A: The inhibition was 64%.

Q: What about the inhibition [6] of the same compound?
A: The inhibition was 64%.

Q: And the inhibition [7]?
A: Its inhibition is 64%.

Q: With `CN(C)[C@@H]1Cc2cccc3nc(O)n(c23)C1` as the compound, how does the inhibition [1] read?
A: The inhibition was less than 30%.

Q: And the inhibition [2]?
A: Its inhibition is less than 30%.

Q: And the inhibition [3]?
A: The inhibition was less than 30%.

Q: What about the inhibition [8] of the same compound?
A: The inhibition was less than 30%.

Q: What about the inhibition [4] of the same compound?
A: Its inhibition is less than 30%.

Q: And the inhibition [5]?
A: Its inhibition is less than 30%.

Q: And the inhibition [9]?
A: The inhibition was less than 30%.

Q: What about the inhibition [6] of the same compound?
A: The inhibition was less than 30%.

Q: And the inhibition [7]?
A: Its inhibition is less than 30%.

Q: How did the inhibition [1] turn out when `CN(C)[C@H]1Cc2cccc3nc(O)n(c23)C1` was run?
A: The inhibition was less than 50%.

Q: What about the inhibition [2] of the same compound?
A: The inhibition was less than 50%.

Q: And the inhibition [3]?
A: Its inhibition is less than 50%.

Q: And the inhibition [8]?
A: The inhibition was less than 50%.

Q: And the inhibition [4]?
A: Its inhibition is less than 50%.

Q: And the inhibition [5]?
A: The inhibition was less than 50%.

Q: And the inhibition [9]?
A: The inhibition was less than 50%.

Q: And the inhibition [6]?
A: The inhibition was less than 50%.

Q: And the inhibition [7]?
A: The inhibition was less than 50%.

Q: How did the inhibition [1] turn out when `CN(C)[C@@H]1Cc2cccc3ncn(c23)C1` was run?
A: The inhibition was less than 30%.

Q: And the inhibition [2]?
A: The inhibition was less than 30%.

Q: And the inhibition [3]?
A: Its inhibition is less than 30%.

Q: What about the inhibition [8] of the same compound?
A: Its inhibition is less than 30%.

Q: What about the inhibition [4] of the same compound?
A: The inhibition was less than 30%.

Q: And the inhibition [5]?
A: The inhibition was less than 30%.

Q: What about the inhibition [9] of the same compound?
A: The inhibition was less than 30%.

Q: What about the inhibition [6] of the same compound?
A: Its inhibition is less than 30%.

Q: What about the inhibition [7] of the same compound?
A: The inhibition was less than 30%.
